# Ab-14 heavy chain CDR variants: yeast mating affinities

Target: peptide PDVDLGDISGINAS, taken from heptad repeat 2 (HR2) of SARS-CoV-2 spike.

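The parent was found by panning a naive human phage display library on the peptide. Designed CDR sequences, proposed from the first random library and measured here. Group labels follow the data file (Ctrl: baseline library sampled from a position-specific scoring matrix, with some repeated check sequences; Rand: our label for a block that the file lists under HC and that is probably the random mutants of the ten best first-round binders; En: ensemble of fine-tuned language models; GP: Gaussian process model; GPLM: also part of the Gaussian process libraries; HC: hill climbing; Gen: genetic algorithm; Gibbs: Gibbs sampling; a sequence that several methods proposed may carry one label only). The assay is AlphaSeq: two haploid yeast populations carry antibody and antigen on their surface. The frequency of each diploid, read from paired DNA barcodes, reflects how well the two displayed proteins bind. A regression on co-assayed BCL2-family reference pairs converts the normalised counts of each replicate to an apparent Kd. Each pool was mated in six replicate cultures.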

Each scFv is VH, the linker GGGGSGGGGSGGGGS, VL, as in the parent Ab-14, and differs from it in the CDRs of the heavy chain only.
VH: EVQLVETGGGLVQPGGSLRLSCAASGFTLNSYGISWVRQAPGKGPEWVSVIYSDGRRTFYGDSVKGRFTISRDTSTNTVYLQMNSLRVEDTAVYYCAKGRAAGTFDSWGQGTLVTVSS
VL: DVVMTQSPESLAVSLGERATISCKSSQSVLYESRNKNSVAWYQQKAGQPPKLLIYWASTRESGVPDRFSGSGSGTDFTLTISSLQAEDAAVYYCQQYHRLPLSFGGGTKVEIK

Each variant is given by its three heavy chain CDRs, as the data file delimits them; those of the parent are GFTLNSYGIS, VIYSDGRRTFYGDSVK, GRAAGTFDS. This list holds designs with at most six substitutions. Kd is apparent (estimated from mating counts) and averaged on the log scale over replicates with a signal. Smaller is tighter. "not detected" means that the variant was in the library but no mating with the target was seen in any replicate; the authors take this as a sign of poor binding, and no number exists. Order: sorted from the lowest average up, undetected variants last.

CDR-H1	CDR-H2	CDR-H3	group	apparent Kd	detected
GFGLNSYGIS	VIYSDGRRTFYADSVK	GKTAGTFDS	GP_Gen	220 pM	1/6
GFNLNEYGIS	VIYADGRRTFYADSVK	GDAAGTFDV	En_HC	390 pM	6/6
GFSLNEYGIS	VIYSDGRRTFYGDQVK	GRQAGTFDS	GP_Gen	600 pM	6/6
GFDLNSYGIS	VIYSDGRRTFYDDSVK	GKQAGTFDS	GP_Gen	790 pM	6/6
GFELNQYGIS	VIYSDGKRTFYSDSVK	GRAAGTFDS	GP_HC	890 pM	6/6
GFDLNEYGIS	VIYADGRRTFYSDSVK	GTAAGTFDQ	En_HC	1.1 nM	6/6
GFGLNEYGIS	VIYSDGRRTFYQDSVK	GRTAGTFDS	GPLM_HC	1.1 nM	6/6
GFPLNDYGIS	VIYSDGRRTFYGDSVK	GQTAGTFDS	GP_Gibbs	1.3 nM	6/6
GFSLNSYGIS	VIYSDGRRTFYDDSVK	GMLAGTFDS	GP_HC	1.4 nM	6/6
GFELNSYGIS	VIYSDGRRTFYSDSVK	GRTAGTFDS	GPLM_Gen	1.7 nM	6/6
GFDLNSYGIS	VIYSDGRRTFYGDSVK	GQAAGTFDC	GP_Gen	1.7 nM	6/6
GFTLNSYGIS	VIYSDGRRTAYGDSVK	GHAAGTFDS	Ctrl	3.2 nM	6/6
GFTLNSYGIS	VIYSDGRRTFYSDSVK	GRVAGTFFS	Ctrl	3.6 nM	1/6
GFTLDSYGIS	VIYSDGRRVFYGDSVK	GRAAGTFDS	Ctrl	4.4 nM	3/6
GFTLNEYGIS	VIYSDGRRTFYGDSVK	GREAGTFDL	GPLM_Gen	4.5 nM	6/6
GFTINSYGIS	VIYSDGRRTFYSDSVK	GRVAGTFDS	GPLM_HC	5.5 nM	6/6
GFALNSYGIS	VIYSDGRRTFYDDSVK	GRLAGTFDS	GP_HC	7.5 nM	6/6
GFRLNDYGIS	VIYSDGRRTFYIDSVK	GRLAGTFDS	GP_HC	7.7 nM	3/6
GFTLNMYGIS	VIYSDGRRTFYGDSVK	GRVAGTFDS	Ctrl	8.6 nM	6/6
GFSLNSYGIS	VIYSDGRRTFYGDSVK	GRAAGVFDS	Ctrl	11 nM	1/6
GFWLNDYGIS	VIYSDGRRTFYGDSVK	GRTAGTFDS	GPLM_Gen	12 nM	6/6
GFTLNSYGIS	VIYSDGRRTFYGDSVK	GNQAGTFDS	Ctrl	18 nM	6/6
KFDLNSYGIS	VIYSDGKRTFYIDSVK	GRTAGTFDS	GP_Gibbs	19 nM	5/6
WFSLNSYGIS	VIYSDGRRTFYADSVK	GRTAGTFDS	GPLM_Gen	20 nM	6/6
GFTLESYGIS	VIYSDGRRTFYGDSVK	GRVAGTFDS	GPLM_Gen	23 nM	6/6
GFELNSYGIS	VIYSDGRRTFYGDSVK	GRTAGTFDF	GPLM_Gibbs	23 nM	5/6
GFSLNSYGIS	VIYSDGRRTHYGDSVK	GAAAGTFDS	Ctrl	30 nM	4/6
GFPLNSYGIS	VIYSDGRRTFYGDSVR	GRAAGTFDS	Ctrl	49 nM	4/6
GFNLNSYGIS	VIYSDGRRTFYLDSVK	GQAAGTFDS	GP_Gibbs	56 nM	4/6
GFNLNSYGIS	VIYSDGRRTFYADSVK	GWAAGTFDS	GPLM_Gen	60 nM	6/6
GFTLNSYGIS	VIYSDGRRTFYGDSVK	GNAAGTFNT	Ctrl	62 nM	4/6
GETLNSYGIS	VIYSDGIRTFYGDSVK	GENAGTFDS	Ctrl	62 nM	5/6
KFTLESYGIS	VIYSDGRRTFYGDSVK	GKIAGTFDS	GP_Gibbs	69 nM	5/6
GFVLNDYGIS	VIYSDGRRTFYIDSVK	GRTAGTFDS	GP_Gibbs	85 nM	2/6
GFTLNSYGIS	VIYSDGRRTFYGDSVK	GRAAGSFTD	GP_HC	100 nM	5/6
GFQLNSYGIS	VIYSDGRRTFYQDSVK	GRAAGTFDS	GP_HC	140 nM	5/6
GFGLNSYGIS	VIYSDGFGTFYGDSVK	GRAAGTFDS	Ctrl	150 nM	1/6
GFTLNSYGIS	VIYADGRRTAYGDSVK	GRAAGTFPS	Ctrl	2.3 µM	1/6
GFALNSYGIS	VIYSDGRRTFYGDSVK	GRAAGDFDS	Ctrl	not detected	0/6
GETRNSYGIS	VIYSDGRRTFYGDSVK	GRAALTFKS	Ctrl	not detected	0/6
GFTLNSYGIN	VIYSDGRRTFIIDSVK	GRAAGRFDS	Ctrl	not detected	0/6
GFTLNSYGIS	VIYSDGRRTFYGQSVK	GQAAGTFDQ	Ctrl	not detected	0/6
GFTLESYGIS	VIYSDGRREFYGDSVK	GRQAGTFDY	Ctrl	not detected	0/6
KFNLNSYGIS	VIYSDGRRTFYGDSVK	GRNAGTFDS	GPLM_Gibbs	not detected	0/6
GFTLNQRGIS	VIYSDGRRTFYSDSVK	GRAAGFFTS	Rand	not detected	0/6
GFTLNSHGSS	VIYSDGRRTFYGDSVK	GRAAGTFDS	Ctrl	not detected	0/6
GFTLNSYGIS	VIYSDGRRTAYGDSFK	GWAAGRFDS	Ctrl	not detected	0/6
GFDLNLYGIS	VLYSDGRRTFYGDSVK	GRAAGWFNS	Rand	not detected	0/6

The opening 6 entries, copied out:

{"CDR-H1": "GFGLNSYGIS", "CDR-H2": "VIYSDGRRTFYADSVK", "CDR-H3": "GKTAGTFDS", "group": "GP_Gen", "apparent Kd": "220 pM", "detected": "1/6"}
{"CDR-H1": "GFNLNEYGIS", "CDR-H2": "VIYADGRRTFYADSVK", "CDR-H3": "GDAAGTFDV", "group": "En_HC", "apparent Kd": "390 pM", "detected": "6/6"}
{"CDR-H1": "GFSLNEYGIS", "CDR-H2": "VIYSDGRRTFYGDQVK", "CDR-H3": "GRQAGTFDS", "group": "GP_Gen", "apparent Kd": "600 pM", "detected": "6/6"}
{"CDR-H1": "GFDLNSYGIS", "CDR-H2": "VIYSDGRRTFYDDSVK", "CDR-H3": "GKQAGTFDS", "group": "GP_Gen", "apparent Kd": "790 pM", "detected": "6/6"}
{"CDR-H1": "GFELNQYGIS", "CDR-H2": "VIYSDGKRTFYSDSVK", "CDR-H3": "GRAAGTFDS", "group": "GP_HC", "apparent Kd": "890 pM", "detected": "6/6"}
{"CDR-H1": "GFDLNEYGIS", "CDR-H2": "VIYADGRRTFYSDSVK", "CDR-H3": "GTAAGTFDQ", "group": "En_HC", "apparent Kd": "1.1 nM", "detected": "6/6"}

Nonspecific signal, from three strains lacking the peptide, appeared in 1% of pairings of all heavy chain designs, centred on 120 nM (5% of these signals below 7.0 nM); values are not corrected for it. The range of this assay differs from that of the first round, and the authors advise against merging the two. Of ten entries with the parent sequence, four were seen in most replicates (averages 2.2 nM to 240 nM), three in one and three in none, so single entries are noisy. The authors averaged sequences with at least three values out of six and counted those with two or fewer as poor binders.

Source: Li et al. 2023 (doi:10.1038/s41467-023-39022-2), MIT Lincoln Laboratory and A-Alpha Bio; data file from the FLAb repository.